This assay has as its target HSA (Homo sapiens, UniProt P02768). The assay can be described thus: Same binding test with Vialebex commercial albumin solution at 200 mg/mL. The following applies: Vialebex commercial solution of pure HSA.

Amino acid sequences for entries named in this document (tags omitted). Residues count along the entry.
UniProt P02768, 25-609: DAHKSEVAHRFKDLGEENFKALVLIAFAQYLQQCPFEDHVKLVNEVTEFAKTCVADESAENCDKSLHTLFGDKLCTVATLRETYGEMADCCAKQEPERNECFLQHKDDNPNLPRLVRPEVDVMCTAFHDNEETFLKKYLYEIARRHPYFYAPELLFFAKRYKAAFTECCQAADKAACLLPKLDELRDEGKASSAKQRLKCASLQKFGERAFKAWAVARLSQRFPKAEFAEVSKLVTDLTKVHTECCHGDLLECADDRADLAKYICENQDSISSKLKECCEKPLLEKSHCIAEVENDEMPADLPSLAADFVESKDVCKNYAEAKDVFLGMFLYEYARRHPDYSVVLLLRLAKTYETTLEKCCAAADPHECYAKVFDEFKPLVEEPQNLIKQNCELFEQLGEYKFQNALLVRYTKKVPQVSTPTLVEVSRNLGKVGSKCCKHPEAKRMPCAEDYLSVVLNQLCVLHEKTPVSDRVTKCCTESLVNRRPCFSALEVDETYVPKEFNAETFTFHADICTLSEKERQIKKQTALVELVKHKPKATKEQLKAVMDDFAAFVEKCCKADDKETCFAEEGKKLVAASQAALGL

Regarding `O.O.O.[Cl][Au]([Cl])[Cl]` [Au, gold(III) chloride trihydrate], the ligand/HSA retention ratio was 150.

(Values after US20220018852A1, “METHODS AND KITS FOR DETECTING LIVER DYSFUNCTION IN A SUBJECT” (priority 2018, published 2022).)
